Measurements from patent US20050032873A1, “3-Amino chroman and 2-amino tetralin derivatives” (Wyeth, priority 2003, published 2005).

Protein sequences, listed by entry. Tags and fused reporters are not part of them.
UniProt P08908, whole entry: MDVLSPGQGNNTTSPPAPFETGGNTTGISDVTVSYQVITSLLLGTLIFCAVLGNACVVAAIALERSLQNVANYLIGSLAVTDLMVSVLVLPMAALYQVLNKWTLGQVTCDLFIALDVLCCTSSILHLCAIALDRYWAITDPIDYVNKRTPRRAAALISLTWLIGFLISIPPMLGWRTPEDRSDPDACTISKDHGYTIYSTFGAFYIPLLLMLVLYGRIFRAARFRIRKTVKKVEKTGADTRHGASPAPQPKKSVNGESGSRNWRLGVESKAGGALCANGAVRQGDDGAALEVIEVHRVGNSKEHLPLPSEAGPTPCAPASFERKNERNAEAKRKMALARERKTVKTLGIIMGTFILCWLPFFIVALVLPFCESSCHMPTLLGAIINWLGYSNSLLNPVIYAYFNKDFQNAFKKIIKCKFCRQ

Tests used:
[1] = target: T1, cloned human 5-HT1A receptors (Homo sapiens, UniProt P08908); assay: 35S-GTPγS binding assay, 5-HT1A function; type: biochemical; details: for EC50: agonist potency; for IC50: antagonist potency, reversal of 8-OH-DPAT
T1 construct: expressed in transfected cells

5-HT1A receptor [2] = target: T2, 5-HT1A receptor (Homo sapiens, UniProt P08908); assay: cAMP accumulation assay, 5-HT1A function; type: cell-based; details: for IC50: cells marked IC50 (antagonist)
5-HT1A receptor [3] = target: T2, 5-HT1A receptor; assay: 5-HT1A receptor affinity: displacement of [3H] 8-OH-DPAT; type: binding; design: expressed in transfected cells; details: CHO cells stably transfected with human 5-HT1A receptors

SMILES | EC50 [1] [µM] | IC50 [1] [µM] | EC50 (5-HT1A receptor [2]; cells marked EC50 (agonist)) [µM] | Ki (5-HT1A receptor [3]) [µM] | IC50 (5-HT1A receptor [2]) [µM]
NC(=O)c1ccc(F)c2c1CC(N(CCCc1c[nH]c3ccc(F)cc13)CC1CC1)CO2 (single isomer, unassigned; (+)) [Compound 5b, (+)-3-{(cyclopropylmethyl)[3-(5-fluoro-1H-indol-3-yl)propyl]amino}-8-fluorochromane-5-carboxamide] | 0.0356 | 0.0319 | 0.0163 | – | –
NC(=O)c1ccc(F)c2c1CC(N(CCCc1c[nH]c3ccc(F)cc13)CC1CC1)CO2 (single isomer, unassigned; (-)) [Compound 5a, (−)-3-{(cyclopropylmethyl)[3-(5-fluoro-1H-indol-3-yl)propyl]amino}-8-fluorochromane-5-carboxamide] | – | 0.0441 | – | 0.00204 | 0.0701
NC(=O)c1ccc(F)c2c1CC(N(CCCc1c[nH]c3ccc(F)cc13)CC1CC1)CO2 (stereo not shown) [Compound 5, 3-{(cyclopropylmethyl)[3-(5-fluoro-1H-indol-3-yl)propyl]amino}-8-fluorochromane-5-carboxamide] | 0.0245 | 0.291 | – | 0.00148 | 0.0655
